The results in this text go back to patent publication US20240398947A1, “CAR T-CELL ADJUVANT THERAPIES” (CytoAgents, Inc., priority 2020, published 2024).

The test system of this experiment is CRS. As to the kind of experiment: Mouse model of CAR T-cell therapy induced CRS (Raji-luc tumor). The note with it: IP, BID for 7 days, start about 5 hours prior to CAR-T cell transfer.

`CC#CC[C@H](C)[C@H](O)/C=C/[C@@H]1[C@H]2c3cccc(CCCC(=O)[O-])c3O[C@H]2C[C@H]1O.[Na+]` [GP1681, esuberaprost sodium salt]: the “undesired cytokine production versus control group” value was “lower”.
